The nature of this data set: in vivo. The note with it: mouse, racemate, intravenous, 50% mortality of mice, read-out: LD50** I.v. (intravenous) mg/kg/mouse.

The values that follow come from patent publication EP0151110B1, “L-N-n-PROPYLPIPECOLIC ACID-2,6-XYLIDIDE AND METHOD FOR PREPARING THE SAME” (priority 1983, dated 1985).

For `CCCN1CCCCC1C(=O)Nc1c(C)cccc1C` (racemic) [compound 3], the LD50 amounted to 13.6 mg/kg.
As for `CCCN1CCCC[C@H]1C(=O)Nc1c(C)cccc1C` [L-N-n-propylpipecolic acid-2,6-xylidide], the LD50 came out at 7.8 mg/kg.
